One compound from PubChem BioAssay AID924 (National Center for Advancing Translational Sciences (NCATS), 2007) can be followed below.

Molecules are shown by their SMILES. The list shows a part of the results, in another mix than the full data. Results filed as inconclusive are left out. Active and inactive are the calls of the source. The call rests on the fitted dose curve; in most records, active means well fitted cell-killing curve with a large enough effect; inconclusive means small, poorly fitted or top-dose-only effect; inactive means no such curve, though single readings can be large or run the other way.

This test can be described thus: qHTS Screen for Compounds that Selectively Target Cancer Cells with p53 Mutations: Cytotoxicity of p53ts Cells at the Permissive Temperature.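 Further: 0% = DMSO and -100% = full killing by reference compound; nearly all actives have a fitted effect of over 55% in size.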 The settings on record: H1299-p53A138V at 32C, ATP luminescence viability, 24 h; at 46.1 µM (top of the series). A general note: qHTS replaces the single test concentration by a dilution series.
As for `CCOP1(=S)c2c(C)nn(CCC#N)c2N=C(c2ccccc2F)N1C` (stereo unspecified), the activity change, negative = cytotoxicity was inactive: 13.7%.
